For this assay, the system named is Purified breast cancer cells from 67 patient (Pt) biopsies. The experiment in a line: MiCK assay of drug-induced apoptosis, breast cancer specimens. To be noted: patient pairwise comparison, listed as docetaxel. The class given is cell-based, human. The procedure: Apoptosis(KU)=(VmaxDrug Candidate Treated−VmaxControl)×60×X/(ODcontrol−ODblank)
Within 24 to 48 hours of collection, the specimen was minced, digested with 0.25% trypsin and 0.08% DNase for 1-2 hours at 37 C.°, and then filtered through a 100 micrometer cell strainer. When necessary, non-viable cells were removed by density gradient centrifugation. The cell suspension was then incubated for 30 min at 37° C. in a tissue culture flask to remove macrophages by adherence. For epithelial tumors lymphocytes were removed by 30 minute incubation with CD2 antibody conjugated magnetic beads for T lymphocytes and CD19 antibody conjugated magnetic beads for B lymphocytes. Remaining macrophages were removed, if necessary, using CD14 antibody conjugated magnetic beads. The final cell suspension was plated into a 96-well half-area plate, 120 microliter aliquot per well. The plate was incubated overnight at 37° C. with 5% carbon dioxide humidified atmosphere. 5×10^4 to 1.5×10^5 cells were seeded per well depending on the cell volume to give adequate well-bottom coverage. […]

Structures are written as SMILES.

`CC(=O)O[C@@]12CO[C@@H]1C[C@H](O)[C@@]1(C)C(=O)[C@H](O)C3=C(C)[C@@H](OC(=O)[C@H](O)[C@@H](NC(=O)OC(C)(C)C)c4ccccc4)C[C@@](O)([C@@H](OC(=O)c4ccccc4)[C@H]21)C3(C)C` [Taxotere, docetaxel]: the “Mean Difference (95% CI) of KU vs Abraxane” value (drug minus Abraxane) is given as “APOP>nab-paclitaxel”. For the setting “drug minus Taxol”, the “Mean Difference (95% CI) of KU vs Taxol” value is “not different”.

The values above are taken from patent US20150160193A1, “TUMOR CELL ISOLATION/PURIFICATION PROCESS AND METHODS FOR USE THEREOF” (DIATECH ONCOLOGY, priority 2012, published 2015).
